{"source": "patent EP0516725B1", "about": "“NEW USE OF LINOMIDE (R)” (Pharmacia AB (reg.number 556131-9608), priority 1990, dated 1991)", "test_system": "SIVsm", "experiment": "SIVsm infection of cynomolgus monkeys (body weight, CD4 cells, virus isolation, clinical state)", "key": {"[1]": {"conditions": "low dose (0.3 mg/kg bw x 2), monkeys L1-3, day 75 after challenge"}}}
{"smiles": "CN(C(=O)c1c(O)c2ccccc2n(C)c1=O)c1ccccc1", "note": "[Linomide®, N-phenyl-N-methyl-1,2-dihydro-4-hydroxy-1-methyl-2-oxo-quinoline-3-carboxamide]", "values": [{"measurement": "number of CD4+ lymphocytes in peripheral blood", "setting": "[1]", "result": 0.92, "unit": "x10⁹/l"}, {"measurement": "number of CD4+ lymphocytes, % of start value", "setting": "[1]", "result": "70 % of start value"}, {"measurement": "number or frequency of CD4 cells in infected monkeys", "setting": "result in words, high dose (3 mg/kg bw x 2), monkeys L4-6", "result": "did not significantly alter"}]}
